Consider one compound from ChEMBL document CHEMBL1132484, “New alpha-substituted succinate-based hydroxamic acids as TNFalpha convertase inhibitors” (J Med Chem, 1999).

The chains behind the UniProt entries cited, without tags or fusion partners. Where a name states a change or a piece, a line headed by the entry shows the natural chain unless it says otherwise.
UniProt P78536: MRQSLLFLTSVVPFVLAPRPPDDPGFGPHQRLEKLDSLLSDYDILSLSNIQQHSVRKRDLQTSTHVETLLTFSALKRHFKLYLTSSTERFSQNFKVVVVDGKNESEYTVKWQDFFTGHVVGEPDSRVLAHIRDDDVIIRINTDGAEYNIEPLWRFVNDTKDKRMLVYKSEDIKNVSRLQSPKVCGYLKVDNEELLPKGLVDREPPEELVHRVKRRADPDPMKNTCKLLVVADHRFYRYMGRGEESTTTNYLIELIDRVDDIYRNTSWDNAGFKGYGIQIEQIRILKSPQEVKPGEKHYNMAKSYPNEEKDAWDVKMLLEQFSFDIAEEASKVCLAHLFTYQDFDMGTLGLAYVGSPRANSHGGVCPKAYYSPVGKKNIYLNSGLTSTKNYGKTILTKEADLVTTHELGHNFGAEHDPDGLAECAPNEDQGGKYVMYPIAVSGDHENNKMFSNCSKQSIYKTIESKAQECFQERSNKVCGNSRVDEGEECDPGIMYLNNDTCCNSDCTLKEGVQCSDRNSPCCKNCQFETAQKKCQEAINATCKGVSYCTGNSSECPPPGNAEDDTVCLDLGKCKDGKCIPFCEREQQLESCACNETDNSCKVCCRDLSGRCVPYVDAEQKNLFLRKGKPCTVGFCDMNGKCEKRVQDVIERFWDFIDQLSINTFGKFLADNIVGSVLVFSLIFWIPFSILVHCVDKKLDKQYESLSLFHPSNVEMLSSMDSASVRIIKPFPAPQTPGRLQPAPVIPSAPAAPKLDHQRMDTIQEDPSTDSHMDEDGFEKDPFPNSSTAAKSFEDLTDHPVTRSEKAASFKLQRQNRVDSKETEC

Test [1] deals with T1, Disintegrin and metalloproteinase domain-containing protein 17 (Homo sapiens, UniProt P78536). The test is described as follows: Inhibitory activity against Tumor necrosis factor alpha-converting enzyme (TACE) in blood. It counts as tissue-based.
The target of test [2] is T1, Disintegrin and metalloproteinase domain-containing protein 17. Briefly: Inhibition of TNF(tumor necrosis factor) in human blood. It counts as functional.

SMILES strings stand for the structures.

Broadly, the IC50 is the concentration needed to halve the response being measured. The low end stands for greater potency, the high end for weaker potency. With `CNC(=O)[C@@H](NC(=O)C(CC(C)C)C(O)C(=O)NO)C(C)(C)C` (single isomer, unassigned), the IC50 in test [1] stood at 0.0038 µM; in test [2] it was 7 µM.
